The chains behind the UniProt entries cited, without tags or fusion partners. Residues count along the entry.
UniProt P62993, 60-152 limits assumed: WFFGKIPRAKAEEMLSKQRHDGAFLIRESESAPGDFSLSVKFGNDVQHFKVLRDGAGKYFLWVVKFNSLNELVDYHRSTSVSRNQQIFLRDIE
UniProt P62993, whole entry: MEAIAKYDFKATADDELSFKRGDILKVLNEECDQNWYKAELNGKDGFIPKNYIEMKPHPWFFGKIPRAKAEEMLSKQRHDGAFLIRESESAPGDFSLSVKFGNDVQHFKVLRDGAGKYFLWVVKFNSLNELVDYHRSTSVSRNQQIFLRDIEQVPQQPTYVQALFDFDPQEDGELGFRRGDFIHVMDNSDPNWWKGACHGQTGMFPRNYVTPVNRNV

In publication PMC8526398 (Bioorganic & medicinal chemistry letters, 2021):

Experiments:
GRB2 SH2 domain = GRB2 SH2 domain (Homo sapiens, UniProt P62993); assay: Differential scanning fluorimetry; format: binding; settings: DSF, Tm of the SH2 domain in absence and presence of inhibitor
[1] = target: full-length human GRB2 (EGFR/GRB2 PPI) (Homo sapiens, UniProt P62993); format: binding; settings: comparison of Ki values in the parallel assays

ΔTm (increase in thermostability of GRB2) (GRB2 SH2 domain)	fold more potent than the EGFR1068 phosphopeptide 14-mer [1]	Compound
16.5 °C		NC(=O)C[C@@H]1NC(=O)C2(CCCCC2)NC(=O)C[C@@H](c2ccc(CP(=O)(O)O)cc2)/C=C/C[C@@H](Cc2cccc3ccccc23)CNC1=O [Compound 3]
8.6 °C	2 fold	NC(=O)C[C@@H]1NC(=O)C2(CCCCC2)NC(=O)C[C@@H](c2ccc(CC(=O)O)cc2)/C=C/C[C@@H](Cc2cccc3ccccc23)CNC1=O [Compound 7]
